Experimental data: the NIST ThermoML archive (doi:10.1016/j.jct.2013.11.008)
± gives the expanded uncertainty stated by the source.

Assay: molar enthalpy of vaporization or sublimation
Conditions: 298.15 K; Crystal; Static calorimetry

molar enthalpy: 19.4 ± 0.359 kcal/mol
SMILES: c1ccc2cccc-2cc1 [bicyclo[5.3.0]deca-2,4,6,8,10-pentaene]
